Reference: patent US20250313560A1, “Novel bicyclic benzylamido pyridine derivatives as SOS1 inhibitors” (Boehringer Ingelheim International GmbH, priority 2024, published 2025)

Sequences of proteins named here, by UniProt entry; tags and fusion partners are left off. A change or cut given only in a name is not applied to a line headed by its entry. Residues count along the entry.
UniProt P08684, whole entry: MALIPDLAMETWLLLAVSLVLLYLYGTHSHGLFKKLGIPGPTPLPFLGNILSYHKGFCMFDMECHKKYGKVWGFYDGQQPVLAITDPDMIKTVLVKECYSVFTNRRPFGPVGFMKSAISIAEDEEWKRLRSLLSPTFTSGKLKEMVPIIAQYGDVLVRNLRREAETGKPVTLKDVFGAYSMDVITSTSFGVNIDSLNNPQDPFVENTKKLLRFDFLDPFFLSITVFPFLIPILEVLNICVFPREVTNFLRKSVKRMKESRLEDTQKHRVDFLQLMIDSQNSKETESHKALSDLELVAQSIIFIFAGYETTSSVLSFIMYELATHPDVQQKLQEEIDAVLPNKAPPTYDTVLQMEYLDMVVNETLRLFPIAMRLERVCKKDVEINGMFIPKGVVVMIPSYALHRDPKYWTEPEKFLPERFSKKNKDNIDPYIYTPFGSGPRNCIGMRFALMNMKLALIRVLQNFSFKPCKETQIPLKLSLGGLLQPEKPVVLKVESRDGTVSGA
UniProt Q07889, 564-1049 limits assumed, stated change not applied: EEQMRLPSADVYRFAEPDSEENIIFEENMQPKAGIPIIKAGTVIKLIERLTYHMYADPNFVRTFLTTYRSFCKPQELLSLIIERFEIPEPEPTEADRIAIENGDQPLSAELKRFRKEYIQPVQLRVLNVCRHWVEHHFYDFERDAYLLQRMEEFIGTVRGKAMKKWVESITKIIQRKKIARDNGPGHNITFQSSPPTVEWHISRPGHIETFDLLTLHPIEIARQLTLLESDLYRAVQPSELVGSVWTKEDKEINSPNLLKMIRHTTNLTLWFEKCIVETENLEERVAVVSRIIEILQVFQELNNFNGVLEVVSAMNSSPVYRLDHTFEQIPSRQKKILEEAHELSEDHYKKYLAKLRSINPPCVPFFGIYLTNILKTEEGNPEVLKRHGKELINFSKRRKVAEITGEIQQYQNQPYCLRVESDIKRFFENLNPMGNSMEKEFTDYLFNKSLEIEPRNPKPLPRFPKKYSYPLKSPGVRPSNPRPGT

What was measured:
[1] = test system: human hepatocytes; assay: Metabolic stability in human hepatocytes; details: 1 μM test compound, 50% human serum, percentage of liver blood flow
Method: The metabolic degradation of a test compound is performed with hepatocytes in suspension. After recovery from cryopreservation, human hepatocytes are diluted in Dulbecco's modified eagle medium (supplemented with 3.5 μg glucagon/500 mL, 2.5 mg insulin/500 mL, 3.75 mg hydrocortisone/500 mL, 50% human serum) to obtain a final cell density of 1.0×10^6 cells/mL. Following a preincubation in a cell culture incubator (37° C., 10% CO2), test compound dissolved in DMSO is mixed with the hepatocyte suspension, resulting in a final test compound concentration of 1 μM and a final DMSO concentration of 0.05%.
The cell suspension is incubated at 37° C. (cell culture incubator, horizontal shaker) and samples are removed from the incubation after 0, 0.5, 1, 2, 4 and 6 hours. […]
The percentage of remaining test compound is calculated using the peak area ratio (test compound/internal standard) of each incubation time point relative to the time point 0 peak area ratio. […]
In vitro intrinsic clearance (CLint) is calculated from in vitro T1/2 and scaled to whole liver using a hepatocellularity of 120×10^6 cells/g liver, a human liver per body weight of 25.7 g liver/kg as well as in vitro incubation parameters, applying the following equation: […]
Results are expressed as percentage of hepatic blood flow: […]
Table 3: Hepatic clearance expressed as percentage of liver blood flow (QH [%]) of exemplified compounds. […]

[2] = molecular target: P450 3A4 (Homo sapiens (Human), UniProt P08684); assay: Cytochrome P450 isoenzyme inhibition assay (P450 3A4, midazolam); details: read-out: CYP3A4 inhibition IC50; human liver microsomes, Midazolam as substrate
Method: The inhibition of the conversion of a specific substrate to its metabolite is assayed at 37° C. with human liver microsomes and used to determine the inhibition of cytochrome P450 isoenzymes. For the following cytochrome P450 isoenzymes, these substrates and metabolic reactions are monitored: P450 3A4: hydroxylation of Midazolam (MDZ).
The final incubation volume contains TRIS buffer (0.1 M), MgCl2 (5 mM), a certain concentration of human liver microsomes dependent on the P450 isoenzyme measured (P450 3A4: 0.1 mg/ml) and a certain concentration of the individual substrate for each isoenzyme (P450 3A4: Midazolam 5 μM).
The effect of the test compound is determined at five different concentrations in duplicate (e.g. highest concentration 50 μM with subsequent serial 1:4 dilutions) or without test compound (high control). […] Peak area analyte (=metabolite formed) and internal standard is determined by LC-MS/MS. […] Within each of the assay runs, the IC50 of a positive control inhibitor dependent on the P450 isoenzyme measured (P450 3A4: ketoconazole) is determined. The assay results are plotted against compound concentrations to calculated IC50 values (half maximal inhibitory concentrations) for inhibitory compounds utilizing Software IDBS E-WorkBook. […]

[3] = test system: ERK phosphorylation in NCI-H358 SOS2 KO cells (KRAS G12C); assay: Erk phosphorylation assay; details: read-out: pERK IC50, EGF stimulated, average of at least two measurements
Method: Low IC50 values are indicative of high potency of the SOS1 inhibitor compounds in this assay setting.
ERK phosphorylation assays are performed using the following human cell line: • NCI-H358 SOS2 KO (Hofmann, Gmachl, Ramharter et al, Cancer Discov. 2021, 11(1):142-15): human lung cancer with a KRAS G12C mutation; […]
NCI-H358 SOS2 KO are seeded at 50000 cells per well in 60 μL of DMEM with 2% FBS, in Greiner TC 384 plates. […] After 20 minutes of incubation at rt with shaking, 6 μL of each lysate sample is transferred to a 384-well Proxiplate and analyzed for pERK (Thr202/Tyr204) with the AlphaLISA SureFire Ultra pERK1/2 (Thr202/Tyr204) Assay Kit. 3 μL Acceptor Mix and 3 μL Donor Mix are added under subdued light and incubated for 2 h at rt in the dark, before the signal is measured on a Perkin Elmer Envision plate reader using 384 AlphaScreen settings for Proxiplates. […]

[4] = molecular target: SOS1 and KRAS G12D (Homo sapiens (Human), UniProt Q07889); assay: KRAS::SOS1 AlphaScreen binding assay (KRAS G12D); details: read-out: IC50 [nM] G12D, average of at least two measurements
Method: (§1) Low IC50 values are indicative of high potency of the SOS1 inhibitor compound in this assay setting:
(§2) • GST-tagged SOS1 (564_1049_GST_TEV_ECO) produced in-house • 6xHis-Tev-K-RasG12D/G12C(1-169)Avi produced in-house • GDP (Sigma Cat No G7127) • AlphaLISA Glutathione Acceptor Beads (PerkinElmer, Cat No AL109) • AlphaScreen Streptavidin Donor Beads (PerkinElmer Cat No 6760002) • Assay plates: Proxiplate-384 PLUS, white (PerkinElmer, Cat No 6008289)
(§3) [formula] • KRAS::SOS1 GDP mix: • 7.5 nM (final assay concentration) K-RasG12C, 10 nM (final assay concentration) K-RasG12D, 10 μM (final assay concentration) GDP and 5 nM (final assay concentration) GST-SOS1 are mixed in assay buffer prior to use and kept at rt. […]
(§4) Compounds are diluted to a final start concentration of 100 μM and are tested in duplicate. Assay-ready plates (ARPs) are generated using an Access Labcyte Workstation with a Labcyte Echo 550 or 555 acoustic dispenser. […]
(§5) After a 30 minute incubation time, 5 μL of bead mix is added into columns 1-23. […] After a further 60 minutes incubation, the signal is measured using a PerkinElmer Envision HTS Multilabel Reader using the AlphaScreen specifications from PerkinElmer. […]
(§6) Result calculation: IC50 values are calculated and analyzed using a 4 parametric logistic model. […]

[5] = molecular target: CYP3A4 (Homo sapiens (Human), UniProt P08684); assay: Mechanism-based inhibition of CYP3A4 assay (MBI 3A4); details: human liver microsomes, midazolam substrate; hydroxy-midazolam formation after 30 min preincubation relative to 0 min
Method: Mechanism-Based Inhibition of CYP3A4 assay (MBI 3A4): The mechanism-based inhibition towards CYP3A4 is assayed in human liver microsomes with midazolam as substrate. The test compounds and water control (wells w/o test compound) are preincubated in presence of NADPH (1 mM) with human liver microsomes (0.2 mg/mL) at a concentration of 0, 5 and 25 μM for 0, 10 and 30 min. After preincubation, the incubate is diluted 1:10 (to 0.02 mg/mL) and the substrate midazolam (15 μM) is added for the main incubation (10 min). The main incubation is quenched with ACN and the formation of hydroxy-midazolam is quantified via LC/MS-MS. The formation of hydroxy-midazolam from the 30 min preincubation relative to the formation from the 0 min preincubation is used as a readout. Values of less than 100% mean that the substrate midazolam is metabolized to a lower extent upon 30 min preincubation compared to 0 min preincubation. In general, low effects upon 30 min preincubation are desired (corresponding to values close to 100%/not different to the values determined with water control).
Table 5: Mechanism-based inhibition of P450 isoenzyme 3A4 with midazolam as substrate. Data obtained with the disclosed assay for a selection of compounds (I) according to the invention. At least one measurement otherwise average values of at least two measurements.

[6] = molecular target: SOS1 and KRAS G12C (Homo sapiens (Human), UniProt Q07889); assay: KRAS::SOS1 AlphaScreen binding assay (KRAS G12C); details: read-out: IC50 [nM] G12C, average of at least two measurements
Method: as §1, §2, §3, §4, §5, §6

SMILES	Hepatic clearance - QH[%] in human hepatocytes [1] [%]	IC50 [2] [µM]	IC50 [3] [µM]	IC50 [4] [nM]	MBI inhibition % ctrl. [%] with MDZ [5] [%]	IC50 [6] [nM]
C[C@@H](NC(=O)c1cc([C@H]2CC[C@H](N3CC4CC4(O)C3)CC2)c2ncnn2c1)c1cccc(C(F)F)c1F (single isomer, unassigned) [Example E64a]	16	> 50	0.198	39	95	41
C[C@@H](NC(=O)c1cc([C@H]2CC[C@H](N3CC4CC4(O)C3)CC2)c2ncnn2c1)c1cccc(C(F)F)c1F (single isomer, unassigned) [Example E64b]	23	> 50	0.366	36	76	35
